Results from patent US10189794B2, “Heteroaryl compounds and uses thereof” (Celgene CAR LLC, priority 2013, dated 2019).
Where two headings read alike, the source gives them in different places.

Sequences of proteins named here, by UniProt entry; tags and fusion partners are left off. Residues count along the entry.
UniProt P22455, 460-802: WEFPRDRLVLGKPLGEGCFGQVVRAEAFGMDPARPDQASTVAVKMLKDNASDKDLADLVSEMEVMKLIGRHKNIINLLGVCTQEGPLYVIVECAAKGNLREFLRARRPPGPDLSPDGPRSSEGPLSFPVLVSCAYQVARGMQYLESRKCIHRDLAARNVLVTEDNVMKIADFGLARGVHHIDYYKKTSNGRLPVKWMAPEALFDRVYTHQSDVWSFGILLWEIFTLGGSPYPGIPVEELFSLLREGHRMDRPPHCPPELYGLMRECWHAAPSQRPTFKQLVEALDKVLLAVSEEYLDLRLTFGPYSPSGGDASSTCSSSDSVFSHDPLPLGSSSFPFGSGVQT

Target: FGFR4 intact protein (Homo sapiens (Human), UniProt P22455)
Details: 10-fold excess of compound, 60 min

Compound	MS FGFR4 (mass modification) (method a (SignalChem FGFR4))	MS FGFR4 (mass modification) (method b (Invitrogen FGFR4))
C=CC(=O)NC1CCCCC1Nc1ncc2c(n1)N(Cc1cccc(NC(=O)CC)c1)C(=O)N(c1c(Cl)c(OC)cc(OC)c1Cl)C2 (racemic) [I-8]	F (mass modification of 31-69%)	–
C=CC(=O)NC1CCCCC1Nc1ncc2c(n1)N(Cc1cccnc1)C(=O)N(c1c(Cl)c(OC)cc(OC)c1Cl)C2 (racemic) [I-35]	E (mass modification of ≥70%)	–
C=CC(=O)NC1CCCCC1Nc1ncc2c(n1)N(C1CCCNC1)C(=O)N(c1cc(OC)cc(OC)c1)C2 (racemic) [I-46]	G (mass modification ≤30%)	–
C=CC(=O)NC1CCCCC1Nc1ncc2c(n1)N(CC#N)C(=O)N(c1c(Cl)c(OC)cc(OC)c1Cl)C2 (racemic) [I-47]	E (mass modification of ≥70%)	–
C=CC(=O)NC1CCCCC1Nc1ncc2c(n1)N(Cc1cscn1)C(=O)N(c1c(Cl)c(OC)cc(OC)c1Cl)C2 (racemic) [I-69]	–	E (mass modification of ≥70%)
C=CC(=O)Nc1ccccc1Nc1ncc2c(n1)N(Cc1cccc(NC(=O)CC)c1)C(=O)N(c1c(Cl)c(OC)cc(OC)c1Cl)C2 [I-1]	E (mass modification of ≥70%)	–
C=CC(=O)Nc1ccccc1Nc1ncc2c(n1)N(C)C(=O)N(c1c(Cl)c(OC)cc(OC)c1Cl)C2 [I-2]	E (mass modification of ≥70%)	–
C=CC(=O)Nc1ccccc1Nc1ncc2c(n1)N(C)C(=O)N(c1cc(OC)cc(OC)c1)C2 [I-5]	E (mass modification of ≥70%)	–
C=CC(=O)Nc1cc(C(F)(F)F)ccc1Nc1ncc2c(n1)N(Cc1ccccc1)C(=O)N(c1c(Cl)c(OC)cc(OC)c1Cl)C2 [I-10]	G (mass modification ≤30%)	–
C=CC(=O)Nc1ccccc1Nc1ncc2c(n1)N(Cc1cccc(F)c1)C(=O)N(c1c(Cl)c(OC)cc(OC)c1Cl)C2 [I-12]	E (mass modification of ≥70%)	–
C=CC(=O)Nc1cc(N(C)CCOC)ccc1Nc1ncc2c(n1)N(Cc1ccccc1)C(=O)N(c1cc(OC)cc(OC)c1)C2 [I-13]	E (mass modification of ≥70%)	–
C=CC(=O)Nc1cc(OCCOC)ccc1Nc1ncc2c(n1)N(Cc1ccccc1)C(=O)N(c1cc(OC)cc(OC)c1)C2 [I-14]	E (mass modification of ≥70%)	–
C=CC(=O)Nc1cc(N2CCN(CC)CC2)ccc1Nc1ncc2c(n1)N(C)C(=O)N(c1cc(OC)cc(OC)c1)C2 [I-15]	E (mass modification of ≥70%)	–
C=CC(=O)Nc1cc(N2CCN(C(C)=O)CC2)ccc1Nc1ccc2c(c1)N(C)C(=O)N(c1cc(OC)cc(OC)c1)C2 [I-55]	F (mass modification of 31-69%)	–
C=CC(=O)Nc1ccccc1Nc1ncc2cc(-c3cc(OC)cc(OC)c3)c(N)nc2n1 [I-155]	E (mass modification of ≥70%)	–
C=CC(=O)Nc1cccc(Nc2ncc3c(n2)N(Cc2cccc(NC(=O)CC)c2)C(=O)N(c2c(Cl)c(OC)cc(OC)c2Cl)C3)c1 [I-232]	G (mass modification ≤30%)	–
C=CC(=O)Nc1ccc(Nc2ncc3c(n2)N(Cc2cccc(NC(=O)CC)c2)C(=O)N(c2c(Cl)c(OC)cc(OC)c2Cl)C3)cc1 [I-233]	G (mass modification ≤30%)	–

Now from value to compound:

MS FGFR4 (mass modification) (method a (SignalChem FGFR4))	MS FGFR4 (mass modification) (method b (Invitrogen FGFR4))	Compound
E (mass modification of ≥70%)	–	C=CC(=O)NC1CCCCC1Nc1ncc2c(n1)N(C)C(=O)N(c1c(Cl)c(OC)cc(OC)c1Cl)C2 (racemic) [I-19]
E (mass modification of ≥70%)	–	C=CC(=O)Nc1cc(N2CCOCC2)ccc1Nc1ncc2c(n1)N(C)C(=O)N(c1cc(OC)cc(OC)c1)C2 [I-17]
E (mass modification of ≥70%)	–	C=CC(=O)Nc1ccccc1Nc1ncc2c(n1)N(C1CC1)C(=O)N(c1c(Cl)c(OC)cc(OC)c1Cl)C2 [I-23]
E (mass modification of ≥70%)	–	C=CC(=O)Nc1ccccc1Nc1ncc2c(n1)N(Cc1ccc(Cl)c(OC)c1)C(=O)N(c1c(Cl)c(OC)cc(OC)c1Cl)C2 [I-24]
E (mass modification of ≥70%)	–	C=CC(=O)Nc1ccccc1Nc1ncc2c(n1)N(Cc1ccc(F)cc1)C(=O)N(c1c(Cl)c(OC)cc(OC)c1Cl)C2 [I-25]
E (mass modification of ≥70%)	–	C=CC(=O)Nc1ccccc1Nc1ncc2c(n1)N(Cc1cccc(N)c1)C(=O)N(c1c(Cl)c(OC)cc(OC)c1Cl)C2 [I-26]
E (mass modification of ≥70%)	–	C=CC(=O)Nc1cc(N2CCCCC2)ccc1Nc1ncc2c(n1)N(C)C(=O)N(c1cc(OC)cc(OC)c1)C2 [I-31]
E (mass modification of ≥70%)	–	C=CC(=O)Nc1ccccc1Nc1ncc2c(n1)N(C1CC1)C(=O)N(c1cc(OC)cc(OC)c1)C2 [I-34]
E (mass modification of ≥70%)	–	C=CC(=O)Nc1ccccc1Nc1ncc2c(n1)N(C)C(=O)N(c1ccccc1)C2 [I-38]
–	E (mass modification of ≥70%)	C=CC(=O)Nc1ccccc1Nc1ncc2c(n1)N(C1CCCNC1)C(=O)N(c1cc(OC)cc(OC)c1)C2 (stereo not shown) [I-43]
–	E (mass modification of ≥70%)	C=CC(=O)Nc1ccccc1Nc1ncc2c(n1)N(Cc1cccnc1)C(=O)N(c1cc(OC)cc(OC)c1)C2 [I-44]
E (mass modification of ≥70%)	–	C=CC(=O)Nc1ccccc1Nc1ncc2c(n1)N(CC#N)C(=O)N(c1cc(OC)cc(OC)c1)C2 [I-48]
E (mass modification of ≥70%)	–	C=CC(=O)Nc1ccc(C)cc1Nc1ncc2c(n1)N(C)C(=O)N(c1cc(OC)cc(OC)c1)C2 [I-49]
E (mass modification of ≥70%)	–	C=CC(=O)Nc1ccc(C(F)(F)F)cc1Nc1ncc2c(n1)N(C)C(=O)N(c1cc(OC)cc(OC)c1)C2 [I-50]
–	E (mass modification of ≥70%)	C=CC(=O)Nc1ccccc1Nc1ncc2c(n1)N(Cc1cscn1)C(=O)N(c1cc(OC)cc(OC)c1)C2 [I-64]
–	G (mass modification ≤30%)	C=CC(=O)N[C@@H]1CCCC[C@@H]1Nc1ncc2c(n1)N(Cc1ccccc1)C(=O)N(c1c(Cl)c(OC)cc(OC)c1Cl)C2 [I-66]
–	E (mass modification of ≥70%)	C=CC(=O)Nc1ccccc1Nc1ncc2c(n1)N(C)C(=O)N(c1c(Cl)cccc1Cl)C2 [I-83]
–	E (mass modification of ≥70%)	C=CC(=O)Nc1nn(C)cc1Nc1ncc2c(n1)N(C)C(=O)N(c1c(Cl)c(OC)cc(OC)c1Cl)C2 [I-117]
E (mass modification of ≥70%)	–	C=CC(=O)NCc1ccccc1Nc1ncc2c(n1)N(Cc1cccc(NC(=O)CC)c1)C(=O)N(c1c(Cl)c(OC)cc(OC)c1Cl)C2 [I-179]
E (mass modification of ≥70%)	–	C=CC(=O)NCc1ccccc1Nc1ncc2c(n1)N(C)C(=O)N(c1c(Cl)c(OC)cc(OC)c1Cl)C2 [I-181]
G (mass modification ≤30%)	–	CCC(=O)Nc1ccccc1Nc1ncc2c(n1)N(Cc1ccccc1)C(=O)N(c1c(Cl)c(OC)cc(OC)c1Cl)C2 [I-236]
G (mass modification ≤30%)	–	COc1cc(OC)cc(N2Cc3cnc(Nc4ccccc4)nc3N(C)C2=O)c1 [I-237]
G (mass modification ≤30%)	–	COc1cc(OC)c(Cl)c(N2Cc3cnc(Nc4ccccc4)nc3N(C)C2=O)c1Cl [I-238]
